Results: patent publication US20110046079A1, “Use of Proton Pump Inhibitors as Drug Delivery Adjuvants” (priority 2008, published 2011)

Test system: rat gastric corpus mucosa
Experiment: Transepithelial flux of 14C-labeled probes (mannitol, sucrose, polyethylene glycol) before and after PPI
Details: 0.1 mM 14C-labeled probe, after 200 μM omeprazole
Experimental: In each experiment, one adult male Sprague Dawley rat was sacrificed by decapitation. The stomach was removed, flushed, and stripped of its outer serosal membrane, while being frequently moistened with chilled, unbuffered saline. Two pieces of corpus mucosa were mounted in modified Ussing chambers, with exposed tissue surface area of 1.13 cm^2. Chambers were connected to gas-lift reservoirs, with a fluid volume of 17 mL per hemichamber. The mucosal hemichamber was filled with unbuffered saline (with 17 mM glucose) and kept aerated and perfused with 100% O2 at 37° C. […] Water-jacketed reservoirs maintained chamber saline at 37° C.
KRB was adjusted to a pH of 7.3-7.4.
Unbuffered saline was gassed with 100% O2 and was used to bathe the mucosal side of the gastric mucosa.
Approximately 30 minutes after tissues were mounted in Ussing chambers, dibutyrl cyclic AMP (dB-cAMP) (Sigma, St. Louis, Mo.) was added to the serosal sides of both chambers to a concentration of 1 mM in order to stimulate acid output by the tissue.
Three experiments were performed with each PPI, examining gastric permeability to ^14C-mannitol.
Three experiments were performed at each omeprazole concentration.

OC[C@H]1O[C@@](CO)(O[C@H]2O[C@H](CO)[C@@H](O)[C@H](O)[C@H]2O)[C@@H](O)[C@@H]1O [Sucrose]
% Increase in Flux: 118.17 +/− 26.26% | % Increase in Flux (listed as 14C-sucrose): 118.17%
